ChEMBL document CHEMBL3259695 (J Med Chem, 2014)

Species: Rattus norvegicus
Experiment: Selectivity ratio of Ki for dopamine D2-like receptor in Sprague-Dawley rat caudate putamen to Ki for dopamine D3 receptor in Sprague-Dawley rat ventral striatum
Assay type: tissue-based

CCCN(CC[C@]1(O)C[C@@H](NC(=O)c2ccc3ccccc3c2)C1)[C@H]1C[C@@H]1c1ccc(Cl)cc1 and CCCN(CC[C@]1(O)C[C@@H](NC(=O)c2ccc3ccccc3c2)C1)C1CC1c1ccc(Cl)cc1 (mixture of isomers) cannot be ordered by Ratio Ki: greater than 218 for the first, greater than 21000 for the second.

CCCN(CC[C@]1(O)C[C@@H](NC(=O)c2ccc3ccccc3c2)C1)[C@@H]1C[C@H]1c1ccc(Cl)cc1 gave a Ratio Ki greater than 100000.
